Source: article PMC13507320

Experiments:
[1] = molecular target: Atto643-labeled his6-β1 integrin cytoplasmic tail peptide; assay: FRAP of the tethered partner on supported lipid bilayers (slowdown of diffusion); his6-β1 tails tethered to DGS-NTA-Ni on 5% PIP2 supported lipid bilayer; 1 μM kindlin or 1 μM talin, 30-min incubation; HEPES buffer pH 7.4, 150 mM KCl, 2.5 μM ZnCl2; t1/2_fast against β1 tails alone
[2] = molecular target: Atto643-labeled his6-β1 integrin cytoplasmic tail peptide; assay: FRAP of the tethered partner on supported lipid bilayers (slowdown of diffusion); his6-β1 tails tethered to DGS-NTA-Ni on 5% PIP3 supported lipid bilayer; 1 μM kindlin or 1 μM talin, 30-min incubation; HEPES buffer pH 7.4, 150 mM KCl, 2.5 μM ZnCl2; t1/2_fast against β1 tails alone

His-tagged talin-1, Q9Y490 1-2541
fold slowdown of β1 tail diffusion against β1 tails alone [1]: 2.3 times | fold slowdown of β1 tail diffusion against β1 tails alone [2]: 1.8 times
